{"sequences": {"note": "Chains of the proteins cited; added tags and fusions are not shown. Residues count along the entry.", "UniProt P03146, 1-149": "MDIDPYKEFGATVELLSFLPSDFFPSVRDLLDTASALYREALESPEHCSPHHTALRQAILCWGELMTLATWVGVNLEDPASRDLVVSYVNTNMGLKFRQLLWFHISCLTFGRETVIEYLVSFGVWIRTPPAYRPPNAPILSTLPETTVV"}, "source": "paper PMC9358932", "about": "(Chemical Science, 2022)", "molecular_target": "Cp149 reassembled capsids (Hepatitis B virus genotype D subtype ayw, UniProt P03146)", "type": "binding, Hepatitis B virus (HBV)", "conditions": "ITC, 50 mM HEPES pH 7.5, 298 K"}
{"substance": "NP40 [Compound 6g]", "values": [{"measurement": "Kd", "value": "68 ± 7", "unit": "µM"}]}
